Assay: Quantification of bivalirudin concentration in plasma of PCI patients
Assay type: in vivo
Details: both, human, iv
In short: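 Test compound given to 22 PCI patients as an IV bolus followed by continuous infusion. Plasma sampled at baseline, about 5 min post-bolus, 30 min into infusion (or at PCI end if earlier), and 5 min, 15 min and 2 h after infusion stopped. Levels measured by LC/MS/MS with a […] detection threshold. Data given as mean ± SD.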

SMILES: CC[C@H](C)[C@H](NC(=O)[C@H](CCC(=O)O)NC(=O)[C@H](CCC(=O)O)NC(=O)[C@H](Cc1ccccc1)NC(=O)[C@H](CC(=O)O)NC(=O)CNC(=O)[C@H](CC(N)=O)NC(=O)CNC(=O)CNC(=O)CNC(=O)CNC(=O)[C@@H]1CCCN1C(=O)[C@H](CCCNC(=N)N)NC(=O)[C@@H]1CCCN1C(=O)[C@H](N)Cc1ccccc1)C(=O)N1CCC[C@H]1C(=O)N[C@@H](CCC(=O)O)C(=O)N[C@@H](CCC(=O)O)C(=O)N[C@@H](Cc1ccc(O)cc1)C(=O)N[C@@H](CC(C)C)C(=O)O [bivalirudin]
- half-life: 29.3 min

— PMC3086141 (Circulation. Cardiovascular interventions, 2011)
